The values below come from patent US11857635B2, “Linker compound, polyethylene glycol-linker conjugate and derivative thereof and polyethylene glycol-linker-drug conjugate” (JENKEM TECHNOLOGY CO., LTD. (TIANJIN), priority 2017, dated 2024).

The assay relates to melanoma B16. As to the kind of experiment: Tumor inhibitory effect in subcutaneous melanoma B16 model of C57BL/6 mouse. It counts as in vivo. To be noted: for Tumor volume: 1 mg/Kg IV, rhIL-2 once a day for 5 days, PEG-rhIL-2 injected once. The source says: PEG and rIL-2 were coupled under the reaction conditions of the reaction group 3 in Example 8. The coupled mixtures were purified by ion exchange chromatography, and a PEG-rIL-2 conjugate was separated for a pharmacodynamic experiment. A subcutaneous melanoma B16 model of a C57BL/6 mouse was used to evaluate a tumor inhibitory effect of an mPEG-L5-rhIL-2 conjugate (hereinafter referred to as PEG-rhIL-2). An experimental process is as follows: 10^6 B16 cells were implanted in a middle of a back of each C57BL/6 mouse of 5 to 6 weeks old. After the tumor grows to a measurable size, the experimental mice were randomly grouped with each group including 6 mice, and test compounds rhIL-2, PEG-rhIL-2 and solvent control were applied to the mice in different dose concentrations and dose schemes. Body weight and tumor volume were measured every other day.

As for PEG-rhIL-2, under “9th day of administration”, the “Increase of anti-tumor effect compared with unmodified rhIL-2 group” value is 27%. Besides, the Tumor volume is listed as 104 mm3 (day 1); 147 mm3 (day 3); 225 mm3 (day 5); 280 mm3 (day 7); 310 mm3 (day 9).

With “rhIL-2: recombinant human interleukin 2, unmodified”, the Tumor volume by setting is: (day 1) 102 mm3; (day 3) 180 mm3; (day 5) 260 mm3; (day 7) 470 mm3; (day 9) 650 mm3.
